Assay results reported in publication PMC6598686 (Molecular cell, 2019).

Legend:
Test in all cases: pull-down
[1] = molecular target: T1, His-tagged human NAP1 (human, UniProt P55209 1-391)
T1 sequence (looked up): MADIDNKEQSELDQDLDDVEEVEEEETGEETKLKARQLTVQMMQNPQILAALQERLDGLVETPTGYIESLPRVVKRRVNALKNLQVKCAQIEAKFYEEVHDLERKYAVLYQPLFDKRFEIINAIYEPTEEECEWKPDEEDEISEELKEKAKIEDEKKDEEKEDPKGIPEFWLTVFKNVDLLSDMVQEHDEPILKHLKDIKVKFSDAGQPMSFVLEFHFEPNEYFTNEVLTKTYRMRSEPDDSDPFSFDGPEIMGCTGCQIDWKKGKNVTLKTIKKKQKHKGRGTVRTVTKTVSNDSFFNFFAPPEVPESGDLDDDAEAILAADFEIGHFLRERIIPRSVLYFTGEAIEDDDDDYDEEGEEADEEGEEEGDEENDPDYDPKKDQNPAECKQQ

[2] = molecular target: His-tagged human TAF-1β (human, UniProt Q01105-2)
[3] = molecular target: T2, His-tagged NAP1(1-312) (human, UniProt P55209 1-312)
T2 sequence (looked up): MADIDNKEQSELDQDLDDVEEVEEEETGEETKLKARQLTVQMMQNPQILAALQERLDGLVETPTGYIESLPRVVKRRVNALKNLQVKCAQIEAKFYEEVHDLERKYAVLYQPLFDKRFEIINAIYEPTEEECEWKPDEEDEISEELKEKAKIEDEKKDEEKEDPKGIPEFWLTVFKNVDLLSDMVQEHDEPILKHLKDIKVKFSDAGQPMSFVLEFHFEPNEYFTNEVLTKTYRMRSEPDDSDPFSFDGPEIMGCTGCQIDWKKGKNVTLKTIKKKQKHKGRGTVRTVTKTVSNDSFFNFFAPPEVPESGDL

Measured: binding result

B1: human linker histone H1.4 (natural protein)
chain: not shown
binds: all assays above
